Common to all, as to assay: In vitro antiproliferation assay, General Procedure 2 (CCK-8)
What all share (type): cell-based
Holding throughout (details): anti-BCMA conjugate (Table 12)

For test [1], the system named is KMS-12-BM multiple myeloma cell line. The source says:
(§1) Cell Culture: Cell lines were obtained from the American Type Culture Collection (ATCC, Manassas, VA, USA) or Deutsche Sammlung von Mikroorganismen und Zellkulturen (DSMZ, Braunschweig, Germany) and maintained according to the culturing conditions specified by ATCC or DSMZ. Cells were thawed out and maintained in culture for at least two passages before proceeding with experimental conditions.
(§2) Cytotoxicity assays: For adherent cell lines, the cells were dissociated with enzyme-free PBS-based cell dissociation buffer (Gibco, USA) and plated on tissue culture treated 96-well flat bottom polystyrene plates (Costar, Corning, USA) at appropriate cell densities depending on doubling time of the cells. 18 hours after plating, cells were treated with test articles at appropriate concentrations starting at 100 nM and diluted in 4-fold serial dilutions. For suspension cell lines, the cells were seeded on the same day of treatment and cells were treated as described above. Adherent cells were treated for 5 days and suspension cells were treated for 3 days. Cell proliferation was assessed using the Cell Counting Kit-8 (CCK-8, Dojindo Laboratories, Japan) and measurements were obtained using the Promega GloMax Discover plate reader (Promega, USA). Data were analyzed using GraphPad Prism software (GraphPad Software, San Diego, CA). All data points were obtained from technical triplicates and the experiments were validated using three biological replicates.

The test system of test [2] is OPM-2 multiple myeloma cell line.
Source text: as §1, §2

Test [3] relates to MM.1S multiple myeloma cell line.
Source text: as §1, §2

In test [4] the test system is NCI-H929 multiple myeloma cell line.
Source text: as §1, §2

In test [5] the test system is MOLP-2 multiple myeloma cell line.
Source text: as §1, §2

Test [6] concerns MM.1R multiple myeloma cell line.
Source text: as §1, §2

The subject of test [7] is LP-1 multiple myeloma cell line.
Source text: as §1, §2

B1: Belantamab-Compound (Ia) (conjugate, chains of the INN, looked up)
heavy: QVQLVQSGAEVKKPGSSVKVSCKASGGTFSNYWMHWVRQAPGQGLEWMGATYRGHSDTYYNQKFKGRVTITADKSTSTAYMELSSLRSEDTAVYYCARGAIYDGYDVLDNWGQGTLVTVSSASTKGPSVFPLAPSSKSTSGGTAALGCLVKDYFPEPVTVSWNSGALTSGVHTFPAVLQSSGLYSLSSVVTVPSSSLGTQTYICNVNHKPSNTKVDKKV[human IgG1 Fc not written out]
light: DIQMTQSPSSLSASVGDRVTITCSASQDISNYLNWYQQKPGKAPKLLIYYTSNLHSGVPSRFSGSGSGTDFTLTISSLQPEDFATYYCQQYRKLPWTFGQGTKLEIKRTVAAPSVFIFPPSDEQLKSGTASVVCLLNNFYPREAKVQWKVDNALQSGNSQESVTEQDSKDSTYSLSSTLTLSKADYEKHKVYACEVTHQGLSSPVTKSFNRGEC
modifications: conjugated to Compound (Ia)
Consider B1, for which the IC50 – broadly, the point on the concentration scale where inhibition reaches its midpoint – in test [1] amounted to 87 pM; in test [2] it was 119 pM; in test [3] it was 209 pM; in test [4] it was 11900 pM; in test [5], 197 pM; in test [6], 684 pM. In test [7], this molecule came in with an IC50 of 3170 pM.
